Test results published in patent US20210299101A1, “SYSTEMS, METHODS, AND KITS FOR DIAGNOSTICS AND TREATMENT OF VIRAL RESPIRATORY INFECTION” (priority 2020, published 2021).
Where two headings read alike, the source gives them in different places.

Key:
[1] = test system: SARS-CoV-2; assay type: in vivo
[2] = test system: SARS-CoV-2; assay type: in vivo; remark: listed apart in the source
[3] = Brescia-COVID Respiratory Severity Scale, admitted patients only

## CNC(=O)c1ccc(N2C(=S)N(c3ccc(C#N)c(C(F)(F)F)c3)C(=O)C2(C)C)cc1F [enzalutamide]
[1]; [3]
  average BCRSS score of admitted patients: 6.2
[1]; monitored one month, enzalutamide 40 mg 4 tablets daily, each arm of 100
  subjects admitted to the hospital after their first visit: 11 subjects
[2]; [3]
  average BCRSS score of admitted patients: 6.2
[2]; monitored one month, enzalutamide 40 mg 4 tablets daily, combination arm of 180, enzalutamide only group of 160
  subjects admitted to the hospital after their first visit: 14 subjects
